These are literature values, as cited in publication PMC9440028, “Neurotensin analogs by fluoroglycosylation at N^ω-carbamoylated arginines for PET imaging of NTS1-positive tumors” (Scientific Reports, 2022).

Chains of the proteins cited; added tags and fusions are not shown.
UniProt P30989, whole entry: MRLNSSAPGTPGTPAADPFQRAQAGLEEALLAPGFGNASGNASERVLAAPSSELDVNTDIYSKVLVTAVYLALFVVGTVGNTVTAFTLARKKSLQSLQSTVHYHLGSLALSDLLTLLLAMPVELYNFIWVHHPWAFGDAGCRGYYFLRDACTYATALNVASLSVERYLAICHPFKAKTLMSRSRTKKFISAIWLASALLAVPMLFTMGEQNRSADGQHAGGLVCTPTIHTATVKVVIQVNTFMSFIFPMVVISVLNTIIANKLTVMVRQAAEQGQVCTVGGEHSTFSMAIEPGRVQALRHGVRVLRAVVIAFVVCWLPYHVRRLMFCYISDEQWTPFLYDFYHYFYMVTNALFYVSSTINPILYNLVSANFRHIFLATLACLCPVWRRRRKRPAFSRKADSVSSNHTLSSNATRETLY

Structures are written as SMILES.

For series [1] the following is noted: cited from earlier work.
Another series addresses hNTS1R (Homo sapiens, UniProt P30989). To be noted: [^3H]UR-MK300, intact HT-29 cells; cited from earlier work.

Turning to `CC(C)C[C@H](NC(=O)[C@@H](NC(=O)[C@H](Cc1ccc(O)cc1)NC(=O)[C@@H]1CCCN1C(=O)[C@H](CCCNC(=N)N)NC(=O)[C@@H](N)CCCNC(=N)N)C(C)(C)C)C(=O)O`, the “Stability in human plasma” value in series [1] is recorded as “readily degraded”. Take `CN[C@@H](CCCNC(=N)N)C(=O)N[C@@H](CCCNC(=N)N)C(=O)N1CCC[C@H]1C(=O)N[C@@H](Cc1ccc(O)cc1)C(=O)N[C@H](C(=O)N[C@@H](CC(C)C)C(=O)O)C(C)(C)C`: in series [1], the “Stability in human plasma” value is “high stability”. For the same compound, on hNTS1R, the “pKi ± SEM” value was 9.07 ± 0.06.
